Data as given in paper PMC5864910, “Mutacin 1140 Lantibiotic Variants Are Efficacious Against Clostridium difficile Infection” (Frontiers in Microbiology, 2018).

Experiments:
Kv Channel = test: Safety Screen 44: Kv Channel; format: binding, human
Ca2+ Channel = test: Safety Screen 44: Ca2+ Channel; format: binding, human
Nav Channel = test: Safety Screen 44: Nav Channel; format: binding, human
[1] = tested on: NMDA ion channel receptor; test: Safety Screen 44: NMDA; format: binding, human
BZD (central) = test: Safety Screen 44: BZD (central); format: binding, human
[2] = tested on: HepG2 human hepatocellular carcinoma cells; settings: HepG2 cytotoxicity

SMILES	Cerep SafetyScreen 44 % Inhibition Kv Channel (Kv Channel) [%]	Cerep SafetyScreen 44 % Inhibition Ca2+ Channel (Ca2+ Channel) [%]	Cerep SafetyScreen 44 % Inhibition Nav Channel (Nav Channel) [%]	Cerep SafetyScreen 44 % Inhibition NMDA [1] [%]	Cerep SafetyScreen 44 % Inhibition BZD (central) (BZD (central)) [%]	Minimum Inhibitory Concentration Mycobacterium phlei (Mycobacterium phlei) [µg/mL]	HepG2 EC50 [2] [µg/mL]
C=C1NC(=O)[C@H](Cc2c[nH]c3ccccc23)NC(=O)[C@H](NC(=O)[C@H](CCCCN)NC(=O)[C@H](C)N)CSC[C@@H](C(=O)N[C@H]2C(=O)N3CCC[C@H]3C(=O)NCC(=O)N[C@H](C(=O)N[C@@H](C)C(=O)N[C@@H](CCCNC(=N)N)C(=O)N/C(=C\C)C(=O)NCC(=O)N[C@@H]3CSC[C@@H]4NC(=O)[C@H](Cc5ccc(O)cc5)NC(=O)[C@@H](CS/C=C\NC4=O)NC(=O)[C@H](CC(N)=O)NC(=O)[C@H](Cc4ccccc4)NC3=O)CS[C@H]2C)NC(=O)[C@H](CC(C)C)NC1=O [F1A]	-12	-17	-20	26	-4	2	805
C=C1NC(=O)[C@H](Cc2c[nH]c3ccccc23)NC(=O)[C@H](NC(=O)[C@H](CCCCN)NC(=O)[C@@H](N)CC(N)=O)CSC[C@@H](C(=O)N[C@H]2C(=O)N3CCC[C@H]3C(=O)NCC(=O)N[C@H](C(=O)N[C@@H](C)C(=O)N[C@@H](CCCNC(=N)N)C(=O)N/C(=C\C)C(=O)NCC(=O)N[C@@H]3CSC[C@@H]4NC(=O)[C@H](Cc5ccc(O)cc5)NC(=O)[C@@H](CS/C=C\NC4=O)NC(=O)[C@H](CC(N)=O)NC(=O)[C@H](Cc4ccccc4)NC3=O)CS[C@H]2C)NC(=O)[C@H](CC(C)C)NC1=O [F1N]	-4	-22	7	3	-3	8	> 1000
C=C1NC(=O)[C@H](Cc2c[nH]c3ccccc23)NC(=O)[C@H](NC(=O)[C@H](CCCCN)NC(=O)[C@@H](N)CO)CSC[C@@H](C(=O)N[C@H]2C(=O)N3CCC[C@H]3C(=O)NCC(=O)N[C@H](C(=O)N[C@@H](C)C(=O)N[C@@H](CCCNC(=N)N)C(=O)N/C(=C\C)C(=O)NCC(=O)N[C@@H]3CSC[C@@H]4NC(=O)[C@H](Cc5ccc(O)cc5)NC(=O)[C@@H](CS/C=C\NC4=O)NC(=O)[C@H](CC(N)=O)NC(=O)[C@H](Cc4ccccc4)NC3=O)CS[C@H]2C)NC(=O)[C@H](CC(C)C)NC1=O [F1S]	-3	-18	-8	9	1	4	> 1000
C=C1NC(=O)[C@H](Cc2c[nH]c3ccccc23)NC(=O)[C@H](NC(=O)[C@H](CCCCN)NC(=O)[C@@H](N)[C@@H](C)O)CSC[C@@H](C(=O)N[C@H]2C(=O)N3CCC[C@H]3C(=O)NCC(=O)N[C@H](C(=O)N[C@@H](C)C(=O)N[C@@H](CCCNC(=N)N)C(=O)N/C(=C\C)C(=O)NCC(=O)N[C@@H]3CSC[C@@H]4NC(=O)[C@H](Cc5ccc(O)cc5)NC(=O)[C@@H](CS/C=C\NC4=O)NC(=O)[C@H](CC(N)=O)NC(=O)[C@H](Cc4ccccc4)NC3=O)CS[C@H]2C)NC(=O)[C@H](CC(C)C)NC1=O [F1T]	9	-5	19	12	-10	4	790
C=C1NC(=O)[C@H](Cc2c[nH]c3ccccc23)NC(=O)[C@H](NC(=O)[C@H](CCCCN)NC(=O)[C@@H](N)Cc2ccc(O)cc2)CSC[C@@H](C(=O)N[C@H]2C(=O)N3CCC[C@H]3C(=O)NCC(=O)N[C@H](C(=O)N[C@@H](C)C(=O)N[C@@H](CCCNC(=N)N)C(=O)N/C(=C\C)C(=O)NCC(=O)N[C@@H]3CSC[C@@H]4NC(=O)[C@H](Cc5ccc(O)cc5)NC(=O)[C@@H](CS/C=C\NC4=O)NC(=O)[C@H](CC(N)=O)NC(=O)[C@H](Cc4ccccc4)NC3=O)CS[C@H]2C)NC(=O)[C@H](CC(C)C)NC1=O [F1Y]	0	-12	9	6	-20	4	523
C=C1NC(=O)[C@H](Cc2c[nH]c3ccccc23)NC(=O)[C@H](NC(=O)[C@H](CCC(=O)O)NC(=O)[C@@H](N)Cc2ccccc2)CSC[C@@H](C(=O)N[C@H]2C(=O)N3CCC[C@H]3C(=O)NCC(=O)N[C@H](C(=O)N[C@@H](C)C(=O)N[C@@H](CCCNC(=N)N)C(=O)N/C(=C\C)C(=O)NCC(=O)N[C@@H]3CSC[C@@H]4NC(=O)[C@H](Cc5ccc(O)cc5)NC(=O)[C@@H](CS/C=C\NC4=O)NC(=O)[C@H](CC(N)=O)NC(=O)[C@H](Cc4ccccc4)NC3=O)CS[C@H]2C)NC(=O)[C@H](CC(C)C)NC1=O [K2E]	-7	-17	-10	0	-37	16	> 1000
C=C1NC(=O)[C@H](Cc2c[nH]c3ccccc23)NC(=O)[C@H](NC(=O)[C@@H](NC(=O)[C@@H](N)Cc2ccccc2)[C@@H](C)CC)CSC[C@@H](C(=O)N[C@H]2C(=O)N3CCC[C@H]3C(=O)NCC(=O)N[C@H](C(=O)N[C@@H](C)C(=O)N[C@@H](CCCNC(=N)N)C(=O)N/C(=C\C)C(=O)NCC(=O)N[C@@H]3CSC[C@@H]4NC(=O)[C@H](Cc5ccc(O)cc5)NC(=O)[C@@H](CS/C=C\NC4=O)NC(=O)[C@H](CC(N)=O)NC(=O)[C@H](Cc4ccccc4)NC3=O)CS[C@H]2C)NC(=O)[C@H](CC(C)C)NC1=O [K2I]	-9	-18	-10	7	-6	4	> 1000
C=C1NC(=O)[C@H](Cc2c[nH]c3ccccc23)NC(=O)[C@H](NC(=O)[C@H](CCC(N)=O)NC(=O)[C@@H](N)Cc2ccccc2)CSC[C@@H](C(=O)N[C@H]2C(=O)N3CCC[C@H]3C(=O)NCC(=O)N[C@H](C(=O)N[C@@H](C)C(=O)N[C@@H](CCCNC(=N)N)C(=O)N/C(=C\C)C(=O)NCC(=O)N[C@@H]3CSC[C@@H]4NC(=O)[C@H](Cc5ccc(O)cc5)NC(=O)[C@@H](CS/C=C\NC4=O)NC(=O)[C@H](CC(N)=O)NC(=O)[C@H](Cc4ccccc4)NC3=O)CS[C@H]2C)NC(=O)[C@H](CC(C)C)NC1=O [K2Q]	1	5	18	17	-23	4	> 1000
C=C1NC(=O)[C@H](Cc2c[nH]c3ccccc23)NC(=O)[C@H](NC(=O)[C@H](CCCCN)NC(=O)[C@@H](N)Cc2ccccc2)CSC[C@@H](C(=O)N[C@H]2C(=O)N3CCC[C@H]3C(=O)NCC(=O)N[C@H](C(=O)N[C@@H](C)C(=O)N[C@@H](CCCNC(=N)N)C(=O)N/C(=C\C)C(=O)NCC(=O)N[C@@H]3CSC[C@@H]4NC(=O)[C@H](Cc5ccc(O)cc5)NC(=O)[C@@H](CS/C=C\NC4=O)NC(=O)[C@H](CC(N)=O)NC(=O)[C@H](Cc4ccccc4)NC3=O)CS[C@H]2C)NC(=O)[C@H](CC(N)=O)NC1=O [L6N]	4	-11	-1	11	-9	4	> 1000
C=C1NC(=O)[C@H](Cc2c[nH]c3ccccc23)NC(=O)[C@H](NC(=O)[C@H](CCCCN)NC(=O)[C@@H](N)Cc2ccccc2)CSC[C@@H](C(=O)N[C@H]2C(=O)N3CCC[C@H]3C(=O)NCC(=O)N[C@H](C(=O)N[C@@H](C)C(=O)N[C@@H](CC(=O)O)C(=O)N/C(=C\C)C(=O)NCC(=O)N[C@@H]3CSC[C@@H]4NC(=O)[C@H](Cc5ccc(O)cc5)NC(=O)[C@@H](CS/C=C\NC4=O)NC(=O)[C@H](CC(N)=O)NC(=O)[C@H](Cc4ccccc4)NC3=O)CS[C@H]2C)NC(=O)[C@H](CC(C)C)NC1=O [R13D]	–	–	–	–	–	8	–
C/C=C(\NC(=O)[C@H](CCCNC(=N)N)NC(=O)[C@H](C)NC(=O)[C@@H]1CS[C@@H](C)[C@@H](NC(=O)[C@@H]2CSC[C@@H](NC(=O)[C@H](CCCCN)NC(=O)[C@@H](N)Cc3ccccc3)C(=O)N[C@@H](Cc3c[nH]c4ccccc34)C(=O)N[C@@H](C)C(=O)N[C@@H](CC(C)C)C(=O)N2)C(=O)N2CCC[C@H]2C(=O)NCC(=O)N1)C(=O)NCC(=O)N[C@@H]1CSC[C@@H]2NC(=O)[C@H](Cc3ccc(O)cc3)NC(=O)[C@@H](CS/C=C\NC2=O)NC(=O)[C@H](CC(N)=O)NC(=O)[C@H](Cc2ccccc2)NC1=O [S5A]	–	–	–	–	–	4	171
C/C=C(\NC(=O)[C@H](CCCNC(=N)N)NC(=O)[C@H](C)NC(=O)[C@@H]1CS[C@@H](C)[C@@H](NC(=O)[C@@H]2CSC[C@@H](NC(=O)[C@H](CCCCN)NC(=O)[C@@H](N)Cc3ccccc3)C(=O)N[C@@H](Cc3c[nH]c4ccccc34)C(=O)N[C@@H](CCSC)C(=O)N[C@@H](CC(C)C)C(=O)N2)C(=O)N2CCC[C@H]2C(=O)NCC(=O)N1)C(=O)NCC(=O)N[C@@H]1CSC[C@@H]2NC(=O)[C@H](Cc3ccc(O)cc3)NC(=O)[C@@H](CS/C=C\NC2=O)NC(=O)[C@H](CC(N)=O)NC(=O)[C@H](Cc2ccccc2)NC1=O [S5M]	–	–	–	–	–	4	260
